# Sampled rows, rich in hits. Any-hit rate of the full collection: about 13%.
# KDM4E inh = blocks human JMJD2E demethylase activity; B2RXH2; JMJD2E catalytic domain, FDH-coupled NADH fluorescence (FDH is formaldehyde dehydrogenase); Potency, µM (top dose mostly 57.1 µM), most hits filed as inhibitors; 230,000 tested, 1.6% active; active = well fitted inhibition curve with a large enough effect, not every such curve was filed as active; inconclusive = small, poorly fitted or top-dose-only effect, or another doubt; inactive = no such curve, though single readings can be large or run the other way; note: nearly all actives have a fitted effect of over 50% in size
# ALDH1A1 block = ALDH1A1 (human) enzyme inhibition | 220,000 tested, 7.3% active | Purified ALDH1A1, NADH fluorescence, propionaldehyde substrate | P00352 | Potency, µM (titrated, usually from 75.3 µM), usual class: inhibitors; active = well fitted inhibition curve with a large enough effect, not every such curve was filed as active; inconclusive = small, poorly fitted or top-dose-only effect, or another doubt; inactive = no such curve, though single readings can be large or run the other way
# G9a block = G9a (human) methyltransferase inhibition. Q96KQ7. AID 504332. 350,000 tested, 8.8% active. Potency, µM (top dose mostly 102 µM), most hits filed as inhibitors. G9a H3K9 monomethylation, AlphaScreen, 2 h; note: nearly all actives have a fitted effect of over 75% in size
#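 Signal arises when biotinylated H3K9 peptide, once monomethylated, bridges streptavidin donor and antibody-captured acceptor beads. Enzyme at 20 nM was preincubated 15 min with test compounds; peptide 500 nM and SAM 20 uM then reacted for 2 h.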
# Lamin A splicing = modulators of lamin A splicing | HeLa LMNA splicing GFP/RFP minigene ratio, 48 h | Potency, µM (doses to about 46.1 µM), actives largely listed as inhibitors | 200,000 tested, 0.01% active | AID 1487; active = well fitted inhibition curve with a large enough effect in the signal ratio, with a control signal flat, not every such curve was filed as active; inconclusive = small, poorly fitted or top-dose-only effect, or effect the other way, or a change in a side signal; the % refers to the signal ratio
#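 S3 HeLa cells stably expressing lamin A-EGFP splicing minigene plus DsRed2, 600 cells/well, 48 h compound exposure at 37C. Laser-scanning cytometry; analysed as GFP (500-530 nm)/RFP (575-640 nm) total intensity ratio; 0.5% DMSO vehicle.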
# Sfp inh = inhibitors of Bacillus subtilis Sfp phosphopantetheinyl transferase | Q9F4F7 | Biochemical Sfp PPTase activity, qHTS | Potency, µM, most hits filed as inhibitors | 310,000 tested, 3.5% active | AID 1490;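 note: the enzyme is Sfp with the accession as filed and its product quenches rhodamine fluorescence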
#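 Compounds were incubated with enzyme (final 15 nM) for 15 min at room temperature before substrate addition started the reaction. Fluorescence at 525 nm excitation, 598 nm emission was recorded immediately and after 30 minutes.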
# miR-21 FLuc = miR-21 reporter, rising signal | HeLa miR-21 FLuc reporter, luciferase, 48 h | Potency, µM (top dose mostly 38.3 µM) | 340,000 tested, under 10 active | AID 2288; active = well fitted rising curve with a large enough effect; inconclusive = small, poorly fitted or top-dose-only effect; inactive = no such curve, though single readings can be large or run the other way;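 note: miR-21 action dims this reporter so a rising signal means less miR-21 action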
#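 Luminescence from a firefly luciferase reporter carrying a miR-21 binding site downstream, stably expressed under a CMV promoter in HeLa cells that make miR-21 endogenously, reports miRNA modulation after 48 h compound exposure up to approximately 40uM final.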
# Numbers stand for hits; – = inactive; ? = inconclusive; · = not tested or not shown; [ ] = dose if it differs, or a comment. Unless noted, calls come from the whole dose curve; as a rule, active = well fitted curve in the direction sought with a large enough effect; inconclusive = small, poorly fitted or top-dose-only effect, or another doubt; inactive = no such curve, though single readings can be large; an effect the other way counts as inactive or inconclusive.
SMILES,KDM4E inh,ALDH1A1 block,G9a block,Lamin A splicing,Sfp inh,miR-21 FLuc
CC(C)OC(=O)c1ccc(NC(=S)NC(=O)c2cncc(Br)c2)cc1,·,·,–,·,–,–
O=C(Nc1ccccc1C(=O)Nc1ccccc1C(=O)O)c1ccccc1,·,·,–,·,–,–
O=C1CC(NS(=O)(=O)c2ccc([N+](=O)[O-])cc2)CN1c1cccc(F)c1 (stereo unspecified),·,·,–,·,·,·
O=C(Nc1ccc(N2CCC(N3CCCCC3)CC2)c(C(=O)O)c1)c1ccccc1,·,·,–,?,·,–
CCCCC/C=C\C/C=C\C/C=C\C/C=C\CCCC(=O)O[C@@H](CO)COCCCCCCCCCCCCCCCC,–,–,–,·,–,·
COc1ccc(-n2c(=O)c(CCc3ccccc3)nc3cnc(OC)nc32)cc1,·,–,–[0.501 µM],?,–,·
CN(C(=O)COC(=O)c1cc2ccccc2cc1O)c1c(N)n(Cc2ccccc2)c(=O)[nH]c1=O,·,·,–[0.501 µM],·,·,·
Fc1ccc(-c2nc3n(c2-c2ccncc2)CCS3)cc1,?,–,·,·,–,·
O=C(NC(=S)Nc1ccccn1)c1cncc(Br)c1,–,–,?,–,–,–
CCn1cc(C(=O)NC(=S)Nc2ccccc2[N+](=O)[O-])cn1,·,·,–[12.7 µM],·,79.4µM,–
CCn1cc(C(=O)NC(=S)Nc2ccccc2Br)cn1,·,·,?,·,–,–
O=C(NC(=S)Nc1ccccc1C(=O)O)c1cncc(Br)c1,·,·,2µM,·,10µM,–
COc1ccc(CNC(=O)c2ccc(CS(=O)(=O)c3ccccc3OC)o2)cc1,·,·,–,–,·,–
O=C(N/N=C\c1ccc(COc2ccc([N+](=O)[O-])cc2)o1)c1ccc(Cl)cc1,–,–,–,–,–,–
COc1ccc(OCc2ccc(/C=N\NC(=O)c3sccc3C)o2)cc1,·,·,39.8µM,·,–,–
Cc1ccc(-c2nc3sc(CCNC(=O)c4ccc(F)c(F)c4)c(C)n3n2)cc1,·,·,–,–,·,–
CCN(CC)CCOC(=O)c1ccc(N/C=C(/C#N)c2nc(-c3cc4ccccc4oc3=O)cs2)cc1,·,·,1.58µM,·,–,–
COc1ccc(/C=C(/C#N)c2nc(-c3ccc(-c4ccccc4)cc3)cs2)cc1,·,·,–,·,·,–
COc1cc(/C=C(/C#N)c2nc(-c3cc4ccccc4oc3=O)cs2)cc([N+](=O)[O-])c1O,–,–,3.16µM,·,–,–
CCN(CC)CCOC(=O)c1ccc(N/C=C(/C#N)c2nc(-c3ccc4c(c3)OCO4)cs2)cc1,?,·,?,·,20µM,–
CCN(CC)CCOC(=O)c1ccc(N/C=C(/C#N)c2nc(-c3ccc(OC)cc3)cs2)cc1,–,·,11.2µM,·,56.2µM,–
CC(=O)Nc1ccccc1OCC(=O)NCC(F)(F)F,?,–,–,–[9.22 µM],–,–
Cc1ccc(NC(=O)CCSc2nc(-c3ccc4c(c3)OCO4)cc(C(F)(F)F)n2)cc1,·,·,–,·,·,–
COc1ccc(S(=O)(=O)Nc2cccc(-c3ccc(N4CCCCC4)nn3)c2)cc1F,·,·,–,–,·,–
CN(C)NC(=S)NC1CCS(=O)(=O)C1 (stereo unspecified),–,·,50.1µM,·,79.4µM,–
SMILES,KDM4E inh,ALDH1A1 block,G9a block,Lamin A splicing,Sfp inh,miR-21 FLuc
O=S1(=O)CCC(NC(=S)NC2CCS(=O)(=O)C2)C1 (stereo unspecified),–,–,–,?,–,–
CC(=O)C1=C(O)C(=O)N(c2cccc(C(=O)O)c2)C1c1ccc(F)cc1 (stereo unspecified),–,–,25.1µM,–,–,–
CC(=O)C1=C(O)C(=O)N(C2CCCCC2)C1c1ccccc1 (stereo unspecified),–,22.4µM,?,–,–,–
CC(=O)C1=C(O)C(=O)N(c2ccc(C(=O)O)cc2)C1c1ccccc1 (stereo unspecified),?,–,44.7µM,–,–,–
CC(=O)C1=C(O)C(=O)N(c2ccc(O)cc2)C1c1ccccc1 (stereo unspecified),·,·,?,·,–,–
Cc1cc(C(=O)Nc2ccc(S(=O)(=O)N3CCOCC3)cc2)ccc1[N+](=O)[O-],·,·,–[0.501 µM],·,–,–
CN1CCc2c(sc3c2C(=O)NC(c2cccc(OC(=O)c4cccs4)c2)N3)C1 (stereo unspecified),?,?,39.8µM,–,–,–
COc1cc(C2NC(=O)c3c(sc4c3CCN(C)C4)N2)ccc1OC(=O)c1ccccc1 (stereo unspecified),·,·,10µM,·,·,–
O=C1C2C3C=CC(CC3)C2C(=O)N1c1ccc(F)cc1 (stereo unspecified),·,·,–[0.501 µM],·,–,–
CC(C)C1NC2(C(=O)c3ccccc3C2=O)C2C(=O)N(c3ccc(F)cc3)C(=O)C12 (stereo unspecified),–,1.26µM,?,–,25.1µM,–
COc1ccc(-c2cc3nc(C4CCN(C(=O)OC(C)(C)C)CC4)c(C(=O)O)cn3n2)cc1,?,?,79.4µM,–,–,–
CCOC(=O)c1cn2nc(-c3ccc(OCC)cc3)cc2nc1C1CCN(C(=O)OC(C)(C)C)CC1,–,–,–,–,–,–
COc1ccc(N2CCN(C(=O)c3cnn(-c4ccc(OC)cc4)c3C3CCN(C(=O)OC(C)(C)C)CC3)CC2)cc1,·,·,14.1µM,–,·,–
COc1ccc(-n2ncc(C(=O)N3CCOCC3)c2C2CCN(C(=O)OC(C)(C)C)CC2)cc1,·,·,–,?,·,–
COc1ccc(-n2c(=O)cnc3cnc(Oc4ccccc4)nc32)cc1,·,?,–[12.7 µM],·,–,·
COc1ccc(CCN2CCCC(CN(C)Cc3cc(Cl)c(O)c(OC)c3)C2)cc1 (stereo unspecified),·,·,70.8µM,·,–,–
O=C1NCC(c2ccccc2)C1C(=O)N/N=C\c1ccc(-c2cccc(Cl)c2Cl)o1 (stereo unspecified),–,–,12.6µM,?,–,–
COc1cccc(/C=N\NC(=O)C2C(=O)NCC2c2ccccc2)c1O (stereo unspecified),28.2µM,–,–,–,–,–
Cc1ccc(-c2ccc(/C=N\NC(=O)C3C(=O)NCC3c3ccccc3)o2)cc1Cl (stereo unspecified),?,?,?,?,50.1µM,–
C#CCOCCOCCOCCNc1nc(N2CCN(C(=O)[C@H](CCCCN)n3cc(CCCC)nn3)CC2)nc(N2CCN(C(=O)[C@H](Cc3ccc(O)cc3)n3cc(CCO)nn3)CC2)n1,–,–,39.8µM,–,–,–
C#CCOCCOCCOCCNc1nc(N2CCN(C(=O)[C@H](C)n3cc(CCCN=C(N)N)nn3)CC2)nc(N2CCN(C(=O)[C@H](Cc3ccc(O)cc3)n3cc(CCO)nn3)CC2)n1,–,–,31.6µM,–,–,–
Cn1c(=O)n(C)c2cc(N3CCOCC3)c(NC(=O)c3cccc(Cl)c3)cc21,·,·,–,·,–,–
COc1cccc(CNC(=O)Cc2c(C)c3cc4c(C)coc4cc3oc2=O)c1,·,·,?,·,·,–

# Assay outcomes as filed in PubChem BioAssay.
